The subject of this data set is mice. The data set can be described thus: orientative acute toxicity (LD50), oral, mice. The conditions noted are these: oral single administration, assessed on seventh day, 10080 min.
Take `O=C1NCN(c2ccccc2)C12CCN(CC1CN(c3ccccc3)c3ccccc3O1)CC2` (stereo not drawn): the LD50 is > 800 mg/kg/os.

Turning to `O=C1NCN(c2ccccc2)C12CCN(CC1CN(c3ccccc3)c3ccccc3O1)CC2` (single isomer, unassigned), the LD50 was > 800 mg/kg/os.

For `O=C1NCN(c2ccccc2)C12CCN(CC1CN(c3ccc(F)cc3)c3ccccc3O1)CC2` (stereo not drawn) [FCE 25676, 2-(1-phenyl-1,3,8-triazaspiro[4,5]decan-4-one-8-yl)-methyl-4-(4-fluorophenyl)-2,3-dihydro-4H-1,4-benzoxazine], the LD50 is recorded as > 800 mg/kg/os.

The values above are taken from patent publication US5084454A, “2-(piperidinylmethyl)-4-phenyl-2,3-dihydro-4H-1,4-benzoxazines useful as antipsychotics” (Farmitalia Carlo Erba S.r.l., priority 1988, dated 1992).
